## Binding of CDR-mutated scFvs to a peptide of the spike HR2 region

The target is the same throughout: PDVDLGDISGINAS, from the HR2 region of SARS-CoV-2 spike.

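The parent was found by panning a naive human phage display library on the peptide. Variants in AAYL51 differ from the parent at up to three CDR positions; double and triple changes were sampled at random. Affinity was read by AlphaSeq, a pooled yeast mating assay with surface-displayed partners. Binding brings cells together so that they mate, and sequencing counts the barcode pairs among the diploids. Each replicate has its own calibration line, from reference interactions of the BCL2 family. Each pool was mated in three replicate cultures.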

The variants keep the light chain, the linker and the frameworks of Ab-91 (scFv order VL, a (GGGGS)3 linker, VH).
VL: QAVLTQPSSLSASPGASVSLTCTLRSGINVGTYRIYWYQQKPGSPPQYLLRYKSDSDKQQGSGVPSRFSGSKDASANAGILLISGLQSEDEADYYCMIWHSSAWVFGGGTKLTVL
VH: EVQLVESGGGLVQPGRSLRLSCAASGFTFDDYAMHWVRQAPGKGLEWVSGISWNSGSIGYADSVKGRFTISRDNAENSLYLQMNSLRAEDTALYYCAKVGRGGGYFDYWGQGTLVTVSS

The parent's heavy chain CDRs are GFTFDDYAMH, GISWNSGSIGYADSVK, VGRGGGYFDY; each variant's own CDRs replace them letter for letter. Every variant below is changed at D30 of the VH (sequential numbering). Each Kd is an estimate from the mating assay, the geometric mean of the replicates in which the pair was seen; lower is stronger. A pair that was not seen in any replicate is written "nd"; this usually means weak binding, but a binder can also be missed. Parent in this assay: reference entry 72 nM, copy in this library 7.5 nM. Background: pairings of library AAYL51 with three empty control strains gave a value in 21% of cases (median 34 µM, 5th percentile 1.8 µM). Values in that range, when seen in few replicates, are hard to tell from nonspecific mating. For each scFv, signals with the empty controls are counted beside the result.

For GFTFLDYAMH / GISWNSGSIGYADWYK / VGRGGGYFDY, the assay gave 620 nM (2 of 3 replicates; controls 0 of 9).
For GFTFHDYAMH / GISWNSGSIGYADSVK / VGRGGGYFDP, the assay gave 250 nM (3 of 3 replicates; controls 3 of 9).
For GFTFQDYAMH / GISWNSGSHGYADSVK / VGRGGGYFDM, the assay gave 11 nM (3 of 3 replicates; controls 3 of 9).
For GFTFHDYAMH / GISWNSGSIGYADSVK / VGRGGGYADY, the assay gave nd (0 of 3 replicates; controls 1 of 9).
For GFTFRDYAMH / AISWNSGSIGYADSVK / VGRGGGYFDF, the assay gave nd (0 of 3 replicates; controls 1 of 9).
For GFTFYDYAMH / AISWNSGSIGYADSVK / VGRGGSYFDY, the assay gave nd (0 of 3 replicates; controls 0 of 9).
For GFTFCDYAMH / GISWNSGSIGYADSVK / VDQGGGYFDY, the assay gave 3.5 µM (1 of 3 replicates; controls 0 of 9).
For GSTFFDYWMH / GISWNSGSIGYADSVK / VGRGGGYFDY, the assay gave nd (0 of 3 replicates; controls 1 of 9).
For GFTFIDYAMH / KISWNSGSIGYADSVK / VGRAGGYFDY, the assay gave 2.0 µM (1 of 3 replicates; controls 0 of 9).
For GFTFFDYAMH / GISWNSGSIGYADSWK / VGRGGGYFDY, the assay gave nd (0 of 3 replicates; controls 1 of 9).
For GFTFQDYIQH / GISWNSGSIGYADSVK / VGRGGGYFDY, the assay gave 50 µM (2 of 3 replicates; controls 1 of 9).
For GFTFYDYAMH / GISWNSGSIGYAQSVK / VGHGGGYFDY, the assay gave 30 nM (3 of 3 replicates; controls 1 of 9).
For GFTFEDYAEH / GISVNSGSIGYADSVK / VGRGGGYFDY, the assay gave nd (0 of 3 replicates; controls 0 of 9).
For GFTFHKYAMH / GISWNSGSIGYADSVK / VGRGGGYFRY, the assay gave nd (0 of 3 replicates; controls 0 of 9).
For GFTFIHYAMH / GISWGSGSIGYADSVK / VGRGGGYFDY, the assay gave 3.7 µM (3 of 3 replicates; controls 2 of 9).
For GFTFYDYAMH / GISWNVGSIGYADSVK / VGRGGGYFDY, the assay gave 270 µM (3 of 3 replicates; controls 6 of 9).
For GFTFEDYAMH / GISWNSGSIGYADSAK / VGRDGGYFDY, the assay gave 11 µM (1 of 3 replicates; controls 2 of 9).
For GFTFGDYAMH / GISWNSGKIGYADSVK / VGRGGGYFDY, the assay gave 2.6 µM (3 of 3 replicates; controls 5 of 9).
For GFTRPDYAMH / GISWNSGSIGYADSVK / VGEGGGYFDY, the assay gave nd (0 of 3 replicates; controls 0 of 9).
For GFTFGDYAMH / GISWNSGSIGHADSVK / VGRWGGYFDY, the assay gave nd (0 of 3 replicates; controls 0 of 9).
For GFTFTDYAMH / GIKWNSGSIGYADSVK / VGRGGGLFDY, the assay gave nd (0 of 3 replicates; controls 0 of 9).
For GFTFNDYAMH / GISWNSGSIGYADSVG / VGRGGRYFDY, the assay gave 21 nM (3 of 3 replicates; controls 6 of 9).
For GFTFYDPAMH / FISWNSGSIGYADSVK / VGRGGGYFDY, the assay gave nd (0 of 3 replicates; controls 0 of 9).
For GFTFKDYAMH / GISWNPGSIGAADSVK / VGRGGGYFDY, the assay gave 4.5 µM (1 of 3 replicates; controls 2 of 9).
For GFTFCDYAMF / GISWNNGSIGYADSVK / VGRGGGYFDY, the assay gave nd (0 of 3 replicates; controls 0 of 9).
For GFTFNDYAMH / GISGNSGSIGYAWSVK / VGRGGGYFDY, the assay gave 73 nM (3 of 3 replicates; controls 2 of 9).
For GFTFADYAMH / GISWNSGSIGYADSVK / VGRGGYYFDH, the assay gave nd (0 of 3 replicates; controls 0 of 9).
For GFTFSDKAML / GISWNSGSIGYADSVK / VGRGGGYFDY, the assay gave nd (0 of 3 replicates; controls 0 of 9).
For GFTFRDYAMH / GISWNSGSIGYADSVK / VGRGGGYFDY, the assay gave 21 nM (3 of 3 replicates; controls 2 of 9).
For GFTFLDYAMH / GISWNSGSVGYADSVK / VGRGGGYFDY, the assay gave 170 µM (2 of 3 replicates; controls 5 of 9).
For GFTFCPYAMH / GISWNSGSIPYADSVK / VGRGGGYFDY, the assay gave nd (0 of 3 replicates; controls 0 of 9).
For GFTFCDYAMI / GISWNSGSIGYADSMK / VGRGGGYFDY, the assay gave nd (0 of 3 replicates; controls 1 of 9).
For PFTFNDYAMH / GISWNSPSIGYADSVK / VGRGGGYFDY, the assay gave nd (0 of 3 replicates; controls 1 of 9).
For GFTFNDYAHH / GISWNSGSIGYADSVK / VGRGGGYPDY, the assay gave 120 µM (3 of 3 replicates; controls 5 of 9).
For GFTFCDYAMH / GISWNSGSIGYADSVK / VGRGGGYFYY, the assay gave 370 µM (3 of 3 replicates; controls 7 of 9).
For GFRFWDYAMH / GISWNCGSIGYADSVK / VGRGGGYFDY, the assay gave 5.7 µM (3 of 3 replicates; controls 3 of 9).
For GFTFLDYAMH / GISWNSGSIDYADSVK / VGRYGGYFDY, the assay gave 110 µM (1 of 3 replicates; controls 4 of 9).
For GFTFEDYAMH / GISWNSGSIGYADSVK / VGRDGGYFCY, the assay gave 10 nM (3 of 3 replicates; controls 2 of 9).
For GFTFRDYAMH / GISWNSKSIGYADSVP / VGRGGGYFDY, the assay gave nd (0 of 3 replicates; controls 1 of 9).
For GFTFHDAAMH / GISWNPGSIGYADSVK / VGRGGGYFDY, the assay gave 770 nM (3 of 3 replicates; controls 5 of 9).

Picked from the list: the 3 lowest averages where every replicate gave a value.

{"CDR-H1": "GFTFEDYAMH", "CDR-H2": "GISWNSGSIGYADSVK", "CDR-H3": "VGRDGGYFCY", "Kd": "10 nM", "detected": "3 of 3", "control signals": "2 of 9"}
{"CDR-H1": "GFTFQDYAMH", "CDR-H2": "GISWNSGSHGYADSVK", "CDR-H3": "VGRGGGYFDM", "Kd": "11 nM", "detected": "3 of 3", "control signals": "3 of 9"}
{"CDR-H1": "GFTFNDYAMH", "CDR-H2": "GISWNSGSIGYADSVG", "CDR-H3": "VGRGGRYFDY", "Kd": "21 nM", "detected": "3 of 3", "control signals": "6 of 9"}

Reference: Engelhart et al. 2022, doi:10.1038/s41597-022-01779-4. File: FLAb, binding data.